Assay results: PubChem BioAssay AID624352 (Sanford-Burnham Center for Chemical Genomics, 2012)
Only a part is listed here, and it is no random draw. Activity calls are given as the source filed them.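 The calls were made as follows: active = inhibition of the luminescence signal of 40% or more relative to plate controls, in a single-dose primary screen at 18.75 µM; inactive = the rest.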

Assay: HIF-2a reporter inhibitors, primary screen, luminescence, 786-0 RCC cells (AID 624352)
Settings: 786-0 RCC cells HIF-2a reporter, luciferase luminescence, overnight; at 18.8 µM; hits give high values

| Compound | inhibition |
| --- | --- |
| COc1ccc(OP(C)(=O)Nc2ccccn2)cc1 (centres undefined) | inactive: -3.5% |
| CN(C)CCOC(=O)C(O)(c1ccccc1)C1CCCC1 (centres undefined) | inactive: 3.13% |
| COc1ccccc1OP(C)(=O)Nc1ccc(Br)cc1 (centres undefined) | inactive: -12.8% |
| CP(=O)(Nc1ccccn1)Oc1ccccc1 (centres undefined) | inactive: 10.5% |
| COc1ccccc1OP(C)(=O)Nc1ccc(C)cc1C (centres undefined) | inactive: 10.1% |
| CCc1ccc(OP(C)(=O)O)cc1 | inactive: 11.1% |
| O=[N+]([O-])c1cc([N+](=O)[O-])c(Nc2ccccn2)c([N+](=O)[O-])c1 | inactive: -0.574% |
| Cc1c(NP(C)(=O)Oc2ccc(C(C)C)cc2)c(=O)n(-c2ccccc2)n1C (centres undefined) | inactive: 17.3% |
| COc1ccccc1OP(C)(=O)Nc1ccc(C)c(C)c1 (centres undefined) | inactive: 14.7% |
| COc1ccc(OP(C)(=O)Nc2ccccc2Br)cc1 (centres undefined) | inactive: 15.2% |
| O=C1C(O)=C([N+](=O)[O-])C(=O)C(O)=C1[N+](=O)[O-] | inactive: 5.26% |
| Cc1cc(C)cc(OP(C)(=O)Nc2cccc(C(F)(F)F)c2)c1 (centres undefined) | inactive: 6.79% |
| CP(=O)(OCCOc1ccccc1)OCCOc1ccccc1 | inactive: 17.4% |
| CCCCCCCCCCCCCCCC1C[N+](C)(C)CCOP(C)(=O)O1 (centres undefined) | active: 54.7% |
| CP(=O)(Nc1ccc(Cl)cc1Cl)Oc1ccccc1 (centres undefined) | inactive: -4.48% |
| CCOC(=O)c1ccc(NP(C)(=O)Oc2ccc(Cl)cc2)cc1 (centres undefined) | inactive: 22.6% |
| CP(=O)(OC12CC3CC(CC(C3)C1)C2)OC12CC3CC(CC(C3)C1)C2 | inactive: 13.5% |
| COc1ccccc1OP(C)(=O)Nc1c(C)n(C)n(-c2ccccc2)c1=O (centres undefined) | inactive: 0.357% |
| O=C(OCCCN1CCCC1)C(O)(c1ccccc1)C1CCCCC1 (centres undefined) | inactive: 4.08% |
| CP(=O)(Oc1ccccc1)N1CCOC1=O (centres undefined) | inactive: -1.11% |
| CCc1ccc(OP(C)(=O)Nc2cccnc2)cc1 (centres undefined) | inactive: 6.22% |
| CCN(CC)CC(O)COC(=O)C(O)(c1ccccc1)C1CCCCC1 (centres undefined) | inactive: 4.26% |
| COc1ccc(OP(C)(=O)Nc2ccc(Br)cc2)cc1 (centres undefined) | inactive: -14% |
| CN(C)C(=O)c1c([N+](=O)[O-])cc([N+](=O)[O-])cc1[N+](=O)[O-] | inactive: -2.3% |
| CC(C)(C)c1ccc(OP(C)(=O)O)cc1 | inactive: 6.49% |

| Compound | inhibition |
| --- | --- |
| COc1ccccc1OP(C)(=O)Nc1ccccc1Br (centres undefined) | inactive: 11.4% |
| CP(=O)(Nc1ccc(Cl)cc1)Oc1ccc(F)cc1 (centres undefined) | inactive: 0.87% |
| CCOP(C)(=S)SCC(=O)NC(C)(CC)C(=O)O (centres undefined) | inactive: 7.65% |
| CP(=O)(Nc1ccc(SC(F)(F)F)cc1)Oc1ccc(F)cc1 (centres undefined) | inactive: 16.6% |
| Cc1ccccc1NP(C)(=O)Nc1ccccc1C | inactive: 17.6% |
| O=[N+]([O-])c1cc([N+](=O)[O-])c(C(F)(F)F)c([N+](=O)[O-])c1O | inactive: -4.26% |
| CP(=O)(Nc1ccc2c(c1)OCCO2)Oc1ccccc1 (centres undefined) | inactive: 6.02% |
| CN(C)CCOC(=O)C(O)(c1ccccc1)C1CCCCC1 (centres undefined) | inactive: 3.14% |
| COc1ccc(NP(C)(=O)Oc2ccccc2OC)cc1 (centres undefined) | inactive: 10.7% |
| COc1ccc(OP(C)(=O)Nc2cccc(Br)c2)cc1 (centres undefined) | inactive: 13.8% |
| Cc1c(C(c2ccc3c(c2)OCO3)c2c(C)n(C)n(-c3ccccc3)c2=O)c(=O)n(-c2ccccc2)n1C.O=[N+]([O-])c1cc([N+](=O)[O-])c(O)c([N+](=O)[O-])c1 | inactive: 9.28% |
| O=[N+]([O-])c1ccc(OP2(=O)COCCO2)cc1 (centres undefined) | inactive: 6.26% |
| Cc1cc(-c2cccc3ccccc23)c(C)cn1.O=[N+]([O-])c1cc([N+](=O)[O-])c(O)c([N+](=O)[O-])c1 | inactive: -6.29% |
| O=[N+]([O-])c1cc([N+](=O)[O-])c(NCC2CCS(=O)(=O)C2)c([N+](=O)[O-])c1 (centres undefined) | inactive: 30.1% |
| CCOC(=O)c1ccc(NP(C)(=O)Oc2ccc(F)cc2)cc1 (centres undefined) | inactive: 10.4% |
| COc1ccc(OP(C)(=O)Nc2ccc(SC(F)(F)F)cc2)cc1 (centres undefined) | inactive: 3.68% |
| CCN(CC)CCCNc1ccccc1[N+](=O)[O-].O=[N+]([O-])c1cc([N+](=O)[O-])c(O)c([N+](=O)[O-])c1 | inactive: 2.57% |
| CP(=O)(Nc1ccccc1)Oc1ccc(F)cc1 (centres undefined) | inactive: -5.45% |
| CCCCCOc1ccc(NP(C)(=O)Oc2ccc(Cl)cc2Cl)cc1 (centres undefined) | inactive: -22.1% |
| O=[N+]([O-])c1cc([N+](=O)[O-])c(OC2CCCCC2O)c([N+](=O)[O-])c1 (centres undefined) | inactive: 18.6% |
| Cc1c([N+](=O)[O-])cc([N+](=O)[O-])c(Br)c1[N+](=O)[O-] | inactive: 1.81% |
| CCN(CC)CCCOC(=O)C(O)(c1ccccc1)C1CCCCC1 (centres undefined) | inactive: 8.15% |
| CP(=O)(Nc1ccccc1F)Oc1ccccc1 (centres undefined) | inactive: 9.24% |
| CC(C)c1ccc(OP(C)(=O)Nc2ccc(SC(F)(F)F)cc2)cc1 (centres undefined) | inactive: 6.1% |
